From patent publication US20200283532A1, “TUMOUR-TARGETING PEPTIDE VARIANTS” (Cancer Research Technology Limited, priority 2017, published 2020)
Like-named read-outs stand apart in the source and are kept apart here.

How the values were obtained:
[1] = test system: A375Pβ6 cells; type: cell-based
Protocol: Cells were trypsinised and resuspended into DMEM (serum-free media) to prepare a cell suspension of 4×10^6 cells/ml. From this point on everything was kept on ice. 50 μl of cell suspension were aliquoted into each flow tube. Peptides were diluted in ice-cold serum-free media to 200 nM giving the final concentration of 100 nM when 50 μl was added to the cell samples. The peptides were left on ice for 15 minutes then washed twice with flow media and centrifuged for 3 minutes at 1200 rpm in between each wash step. Mouse anti-biotin (50 μl at 1:200) was added to each sample for 15 minutes, then wash steps were repeated. […] Samples were examined on an Imagestream X Mark II (Amnis, Merck) Imagestream images were assessed for internalisation compared with the 0 minute samples using on board software. […]
Cells were prepared as above except that no detergent was added prior to detecting the biotin with antibodies. Samples were analysed on a FACScalibur (Bekton-Dickinson) cytometer.
To assess ability to be internalized by cells at 37° C. […] Imagestream® takes a fluorescence image of each cell (FIG. 2C) enabling image analysis of the fluorescence on the surface versus the intracellular compartment. […] For flow cytometry we monitored the loss of surface expression as the peptides were internalized.

[2] = Biodistribution of 111In-DTPA labelled peptides in tumour-bearing mice; type: in vivo, female CD1 Nu/Nu mice; settings: female, CD1 Nu/Nu, mouse, 0.3 MBq per animal, total radioactivity, 111In-DTPA peptide iv, mean ± SEM
Protocol: (§1) 2×10^6 cells in 100 μl were injected subcutaneously into the shoulders of female CD1 Nu/Nu mice. Tumours were grown subcutaneously on the left (A375Puro) and on the right (A375136) shoulder over two weeks. Once tumours had grown to approximately 5 mm diameter peptides were radiolabelled with Indium-111, and analysed by Radio-HPLC to determine labelling efficiency. The labelled peptides were diluted in sterile PBS/BSA and were dosed to give 0.3MBq per animal. Mice were then intravenously (tail-vein) injected with the radiolabelled peptide and are culled after 1 hour. Blood, organs and tumours were removed, weighed and residual activity was measured on a gamma counter (LKB Compugamma) the next day. Data were expressed as % Injected Dose/g tissue (% ID/g).
(§2) Immunocompromised mice (n=3-5) bearing A375Ppuro and A37546 tumours on opposite shoulders were given intravenous (iv) injections of […] of radiolabelled peptides 22-26 then killed 1 h later. Major organs and blood were collected immediately, weighed, and radioactivity determined. The data in Table 3 show the behaviour of the five DTPA-conjugated peptides tested; data are expressed as mean % injected dose/g tissue.

[3] = test system: A375Pβ6 (αvβ6) and A375Puro (control) xenografts; experiment: as above; type: in vivo, female CD1 Nu/Nu mice; settings: 111In-DTPA peptide iv, 1 h; mean ± SEM
Protocol: as §1, §2

SMILES: CC(C)C[C@H](NC(=O)[C@H](CC(=O)O)NC(=O)CNC(=O)[C@H](CCCNC(=N)N)NC(=O)[C@H](CC(C)C)NC(=O)[C@H](CC(N)=O)NC(=O)[C@@H]1CCCN1C(=O)[C@@H](NC(=O)[C@H](CCCCNC(=O)CCCC[C@@H]1SC[C@@H]2NC(=O)N[C@@H]21)NC(=O)[C@H](CC(N)=O)NC(=O)CN(CCN(CCN(CC(=O)O)CC(=O)O)CC(=O)O)CC(=O)O)C(C)C)C(=O)N[C@@H](CCC(N)=O)C(=O)N[C@H](C(=O)N[C@@H](CC(C)C)C(=O)N[C@@H](C)C(=O)N[C@@H](CCC(N)=O)C(=O)N[C@@H](CCCCN)C(=O)N[C@H](C(=O)N[C@@H](C)C(=O)N[C@@H](CCCNC(=N)N)C(=O)N[C@H](C(N)=O)[C@@H](C)O)C(C)C)C(C)C [Peptide 24]
- Relative Activity (A × B) [1]: 1.17
- tissue uptake at 1 h ([2]; heart, 1 h, read-out: Bio-distribution, Heart): 0.66 ± 0.02 %ID/g
- tissue uptake at 1 h ([2]; intestines, 1 h, read-out: Bio-distribution, Intestines): 3.4 ± 0.29 %ID/g
- tissue uptake at 1 h ([2]; kidney, 1 h, read-out: Bio-distribution, Kidney): 131 ± 12 %ID/g
- tissue uptake at 1 h ([2]; liver, 1 h, read-out: Bio-distribution, Liver): 0.3 ± 0.05 %ID/g
- tissue uptake at 1 h ([2]; lung, 1 h, read-out: Bio-distribution, Lung): 3.62 ± 0.3 %ID/g
- tissue uptake at 1 h ([2]; muscle, 1 h, read-out: Bio-distribution, Muscle): 1.1 ± 0.05 %ID/g
- tissue uptake at 1 h ([2]; pancreas, 1 h, read-out: Bio-distribution, Pancreas): 0.5 ± 0.03 %ID/g
- tissue uptake at 1 h ([2]; spleen, 1 h, read-out: Bio-distribution, Spleen): 0.2 ± 0.01 %ID/g
- tissue uptake at 1 h ([2]; stomach, 1 h, read-out: Bio-distribution, Stomach): 4.6 ± 0.63 %ID/g
- tissue uptake at 1 h ([2]; tail, 1 h, read-out: Bio-distribution, Tail): 1 ± 0.19 %ID/g
- tissue uptake at 1 h ([2]; tumour (A375Puro control xenograft), A375Puro xenograft, mice culled after 1 h, read-out: Bio-distribution, Tumour (Control)): 0.4 ± 0.04 %ID/g
- tissue uptake at 1 h ([2]; tumour (A375Pβ6 xenograft, αvβ6-positive), A375Pβ6 xenograft, mice culled after 1 h, read-out: Bio-distribution, Tumour (αvβ6)): 3.8 ± 0.31 %ID/g
- tissue uptake at 1 h ([2]; whole blood, 1 h, read-out: Bio-distribution, Blood): 0.3 ± 0.04 %ID/g
- Bio-distribution, Kidney [3]: retention far greater than peptide 22
